Biological target: PCP receptor
Test: [^3H]TCP binding to the PCP receptor (rat brain minus cerebellum homogenate)
Details: inhibition of [^3H]TCP (1 nM) specific binding, 30 min, 25° C., pH 7.7
Experimental: [^3 H] 1-[1-(2-thienyl)-2-methylcyclohexyl]piperidine (TCP) binding to the PCP receptor was performed as previously described. Vignon, et al., Brain Research 280:194-197 (1983). The PCP receptor site is a regulatory site within the NMDA receptor complex. Scatton, B., Fundam. Clin. Pharmacol. 7:389 (1993) and J. T. Wroblewski, et al., Proc. Natl. Assoc. Sci. USA 89:5068 (1987). The rat brain (minus the cerebellum) was removed and homogenized with an Ultraturax (Ika Werke, Staufen, Germany, maximum setting) in a 50 mM Tris/HCl, pH 7.7 buffer for 20 s at 4° C. The homogenate was then centrifuged at 49,000 g for 20 min. and the pellet was resuspended in the same buffer and the homogenization-centrifugation steps performed a second time. […]
The homogenate (0.5-0.8 mg protein/ml) was incubated with N-[1-(2-thienyl) cyclohexyl]3,4-[^3 H]piperidine ([^3 H]TCP, 1 nM) (Amersham, Arlington Heights, Ill, 48 Ci/mmol) in a 5 mM Tris/Hepes, pH 7.7 buffer in the absence (total binding) and in the presence of the test compounds for 30 min. at 25° C. in a volume of 0.5 ml. […] The filters were rinsed twice with 5 ml of a 50 mM NaCl, Tris HCl 10 mM, pH 7.7 buffer and the radioactivity retained counted in 3.5 ml ACS (Amersham) with an Excel 1410 (LKB) liquid scintillation spectrophotometer. The nonspecific binding was determined in parallel experiments in the presence of 100 μM unlabeled TCP. […]

`C[C@@H]1CCCC[C@]1(c1cccs1)N1CCCCC1` [(1S,2R)1-[1-(2-Thienyl)-2-methylcyclohexyl]-piperidine] showed an IC50 of 4.3 ± 1.1 nM.
